Source: PubChem BioAssay AID602283 (Johns Hopkins Ion Channel Center, 2012)
This is a selection; strong and weak results do not stand in their true shares. Active and inactive are the calls of the source.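 The calls were made as follows: active = inhibition exceeding 3 SD of buffer-only control wells (cut at about 26% in these data); inactive = the rest.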

Test: carbachol calcium response changes in non-induced cells, primary screen, counter-screen for RGS4 activator project, cell-based, HEK293 M3R, non-induced RGS4, Fluo-4 calcium (AID 602283);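 also: percent drop in integrated peak-minus-baseline over baseline Fluo4 ratio after carbachol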
Conditions: HEK293 M3R non-induced RGS4, Fluo4 calcium flux; at 10 µM; active compounds read high; after carbachol challenge at its EC90

Row | Compound | inhibition
1 | CN1CCCCC1COC(=O)C1(O)c2ccccc2CCc2ccccc21 (centres undefined) | active: 25.8%
2 | CCN(CC)CCCOC(=O)C(O)(c1ccccc1)c1ccccc1 | active: 93.3%
3 | O=C(OCCCN1CCCC1)C(O)(c1ccccc1)C1CCCCC1 (centres undefined) | active: 90.3%
4 | CN(C)CCOC(=O)C(O)(c1ccccc1)C1CCCCC1 (centres undefined) | active: 94.8%
